Columns and labels:
[1] = biological target: R. microplus nAChRα6 (Rma6) homopentamers (Rhipicephalus microplus, UniProt A0A223PM23); assay: Two-electrode voltage clamp on Xenopus oocytes expressing Rmα6 homopentamers; assay type: cell-based; details: 15 s pre-application of spinosad followed by 3 s co-application of ACh (10 μM); read-out: provisional EC50 (effect on desensitization rate of ACh responses)
Protocol: (§1) The plasmids containing the sequences of choice were linearized using BeuI (Spel) FastDigest (ThermoFisher) restriction enzyme for 30 min at 37°, and an aliquot run on an agarose gel to check for complete linearization. The plasmid DNA was phenol:chloroform purified and ethanol precipitated. The pellet was re-suspended in deionized water. Capped RNA was synthesized using mMessage mMachine T7 kit from 1 μg linearized plasmid DNA, the sample phenol:chloroform purified and isopropanol precipitated. The pellet was re-suspended in deionized water to a concentration of 500 ng/μl, analysed on an agarose gel for integrity and stored at −80° C. until further use.
(§2) Xenopus laevis oocytes were purchased as whole ovaries from the European Xenopus Resource Centre (University of Portsmouth), delivered in less than 24 h in Modified Barth's Saline (MBS) on wet ice. Upon arrival, the oocytes were treated with 2 mg/ml collagenase type I (Sigma-Aldrich) in calcium-free Barth's solution (NaCl 88 mM, Tris-HCl 15 mM, NaHCO32.4 mM, MgCl2 0.82 mM, KCl 1 mM, pH 7.5) for 30 min at room temperature. […] Following ligand application, the current required to maintain the membrane potential at −60 mV was measured and used for subsequent data analysis. […]

Sequences of proteins named here, by UniProt entry; tags and fusion partners are left off.
UniProt A0A223PM23, entry or part of it: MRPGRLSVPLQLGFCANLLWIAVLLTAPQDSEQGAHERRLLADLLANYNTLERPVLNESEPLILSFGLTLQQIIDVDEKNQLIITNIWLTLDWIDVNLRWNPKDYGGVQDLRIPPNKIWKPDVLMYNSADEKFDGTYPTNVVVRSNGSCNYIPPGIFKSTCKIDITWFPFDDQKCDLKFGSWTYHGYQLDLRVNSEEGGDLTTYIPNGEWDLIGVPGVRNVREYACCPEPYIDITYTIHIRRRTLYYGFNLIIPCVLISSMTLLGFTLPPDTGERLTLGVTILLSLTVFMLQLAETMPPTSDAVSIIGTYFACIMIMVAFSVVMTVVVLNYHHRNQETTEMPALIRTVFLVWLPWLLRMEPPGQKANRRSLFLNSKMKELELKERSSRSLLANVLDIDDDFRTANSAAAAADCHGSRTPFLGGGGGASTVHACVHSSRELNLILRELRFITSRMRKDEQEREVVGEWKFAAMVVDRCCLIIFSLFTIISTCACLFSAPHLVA
UniProt A0A223PM17, entry or part of it I539V: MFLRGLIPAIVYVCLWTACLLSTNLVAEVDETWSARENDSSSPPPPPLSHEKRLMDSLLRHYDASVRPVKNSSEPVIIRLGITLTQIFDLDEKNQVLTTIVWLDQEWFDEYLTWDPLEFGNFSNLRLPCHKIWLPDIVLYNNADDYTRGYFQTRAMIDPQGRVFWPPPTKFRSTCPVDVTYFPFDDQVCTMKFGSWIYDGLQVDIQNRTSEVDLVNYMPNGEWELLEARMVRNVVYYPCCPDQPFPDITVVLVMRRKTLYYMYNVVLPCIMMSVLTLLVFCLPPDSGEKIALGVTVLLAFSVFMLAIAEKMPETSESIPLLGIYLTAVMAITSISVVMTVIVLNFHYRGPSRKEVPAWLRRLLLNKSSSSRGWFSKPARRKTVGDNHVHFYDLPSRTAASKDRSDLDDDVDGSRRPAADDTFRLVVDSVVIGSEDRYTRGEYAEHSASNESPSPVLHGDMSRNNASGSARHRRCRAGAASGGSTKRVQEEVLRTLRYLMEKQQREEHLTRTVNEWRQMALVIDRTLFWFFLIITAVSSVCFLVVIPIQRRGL

[2] = biological target: R. microplus nAChRα5 (Rmα5) homopentamers (Rhipicephalus microplus, UniProt A0A223PM17, I539V); assay type: cell-based; details: Xenopus oocytes, membrane potential clamped at −60 mV, dose-response curve; read-out: EC50 (activation of Rmα5 receptor)
Protocol: as §1, §2

Q: spinosad was tested. Which EC50 [1] did it give?
A: 5.1 µM

Q: And the EC50 [2]?
A: 9.39 ± 0.87 µM
